Assay results as given in patent US10913733B2, “Substituted piperidines thiazolyl acetamides as glycosidase inhibitors and uses thereof” (priority 2015, dated 2021).

Amino acid sequences for entries named in this document (tags omitted).
UniProt O60502, whole entry: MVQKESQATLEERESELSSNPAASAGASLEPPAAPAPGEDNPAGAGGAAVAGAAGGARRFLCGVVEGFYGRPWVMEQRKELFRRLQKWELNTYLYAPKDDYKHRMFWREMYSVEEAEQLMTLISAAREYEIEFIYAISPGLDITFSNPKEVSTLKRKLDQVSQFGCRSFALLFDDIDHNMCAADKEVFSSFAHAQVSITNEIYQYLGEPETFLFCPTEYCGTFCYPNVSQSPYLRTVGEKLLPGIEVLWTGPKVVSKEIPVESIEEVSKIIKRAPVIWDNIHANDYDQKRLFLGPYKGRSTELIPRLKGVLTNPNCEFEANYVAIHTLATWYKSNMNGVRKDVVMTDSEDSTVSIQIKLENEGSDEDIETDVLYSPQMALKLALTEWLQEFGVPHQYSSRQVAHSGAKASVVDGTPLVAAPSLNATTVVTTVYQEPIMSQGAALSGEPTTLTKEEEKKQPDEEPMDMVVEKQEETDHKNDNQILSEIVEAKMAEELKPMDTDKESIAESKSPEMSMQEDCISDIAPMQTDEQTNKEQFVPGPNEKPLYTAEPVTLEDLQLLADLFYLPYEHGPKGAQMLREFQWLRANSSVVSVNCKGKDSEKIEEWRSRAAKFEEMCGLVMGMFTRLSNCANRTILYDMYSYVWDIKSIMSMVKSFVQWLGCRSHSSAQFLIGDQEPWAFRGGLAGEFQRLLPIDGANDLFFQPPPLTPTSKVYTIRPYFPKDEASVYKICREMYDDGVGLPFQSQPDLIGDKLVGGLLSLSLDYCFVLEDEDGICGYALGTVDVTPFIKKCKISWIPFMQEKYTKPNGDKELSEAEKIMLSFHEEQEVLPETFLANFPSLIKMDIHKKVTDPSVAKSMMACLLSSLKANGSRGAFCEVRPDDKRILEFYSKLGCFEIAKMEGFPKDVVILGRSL

Target: human O-GlcNAcase (Homo sapiens (Human), UniProt O60502)
Experiment: Assay for determination of KI values for inhibition of O-GlcNAcase activity
Format: biochemical
Conditions: read-out: hOGA Ki; purified human O-GlcNAcase 0.7 nM; substrate 2 mM 4-Methylumbelliferyl N-acetyl-β-D-glucosaminide; pH 7.0; room temperature; Cheng-Prusoff

## CC(=O)Nc1ncc(CN2CCC(=Cc3ccc(O)cc3)CC2)s1
  Ki: 0.861 nM
